{
  "source": "patent US20020106348A1",
  "about": "“Cancer therapeutics involving the administration of 2-methoxyestradiol and an agent that increases intracellular superoxide anion” (priority 2000, published 2002)",
  "test_system": "human lung cancer cells (H1299)",
  "conditions": "2-ME 1 μM, 24 h plus IR (gamma rays), various doses",
  "data": [
    {"smiles": "COc1cc2c(cc1O)CC[C@@H]1[C@@H]2CC[C@]2(C)[C@@H](O)CC[C@@H]12", "note": "[2-ME, 1,3,5(10)-estratrien-2,3,17b-triol 2 methylether]", "values": [
      {"measurement": "cell killing, combination with ionizing radiation", "value": "greater than the expected additive effect"}
    ]}
  ]
}
